Laboratory results: US20230136717A1, “EPLIN AS A BIOMARKER FOR CANCER” (Turun yliopisto, priority 2020, published 2023)

System: HNSCC cell lines
Assay: Sensitivity of HNSCC cell lines to EGFR-TKi after silencing EPLIN
Assay type: cell-based
Settings: siRNA silencing of EPLIN; FIG. 6C

| Molecule | sensitivity of HNSCC cells to the drug on silencing EPLIN expression |
| --- | --- |
| COc1cc2ncnc(Nc3ccc(F)c(Cl)c3)c2cc1OCCCN1CCOCC1 [Gefitinib] | decreases sensitivity |
| Cetuximab | decreases sensitivity |
